Apparent affinities of Ab-14 variants for a coronavirus HR2 peptide

The measurements come from Engelhart et al. 2022 (doi:10.1038/s41597-022-01779-4) through the FLAb antibody collection.

All variants were tested on one target, the spike HR2 peptide PDVDLGDISGINAS (SARS-CoV-2).

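The parent was found by panning a naive human phage display library on the peptide. Variants in AAYL49 differ from the parent at up to three CDR positions; double and triple changes were sampled at random. In AlphaSeq, yeast of one mating type display the scFv and yeast of the other type display the target. After mating in shaken culture at 30 °C for 16 h, diploids were selected and their barcode pairs sequenced. Each replicate has its own calibration line, from reference interactions of the BCL2 family. Each pool was mated in three replicate cultures.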

Parent: Ab-14, a human scFv built as VH, three GGGGS repeats, VL. Only the CDRs of the heavy chain vary.
VH: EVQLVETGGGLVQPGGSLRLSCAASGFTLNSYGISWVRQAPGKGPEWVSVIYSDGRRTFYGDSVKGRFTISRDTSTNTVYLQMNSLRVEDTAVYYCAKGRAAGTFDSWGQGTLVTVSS
VL: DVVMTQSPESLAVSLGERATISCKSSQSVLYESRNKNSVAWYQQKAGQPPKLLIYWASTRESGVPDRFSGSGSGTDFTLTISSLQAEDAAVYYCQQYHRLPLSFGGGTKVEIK

Variants are written as CDR1, CDR2 and CDR3 of the heavy chain (limits as in the source). Parent: GFTLNSYGIS, VIYSDGRRTFYGDSVK, GRAAGTFDS.
Each Kd is an estimate from the mating assay, the geometric mean of the replicates in which the pair was seen; lower is stronger.
An entry "no signal" has no value in the source: the pair was not observed among the diploids in any replicate. This suggests poor binding but is not conclusive.
Entries are sorted by rising average, undetected variants last.
In this assay the parent's reference entry averaged 4.4 nM; its copy inside this library read 13 µM (one replicate of three).

CDR-H1,CDR-H2,CDR-H3,Kd (apparent),seen in,empty controls
GFSLNSYGIS,VIYSDGRRTFYGDSVK,GRTAGTFDY,1.5 nM,3/3,4/9
GFTLNSYGIS,VIYSDGRRTFYGDSVK,GRVAYTFDG,6.7 nM,3/3,1/9
GFTLNGYGIS,VIYSDGRRTFYGDSVK,GRLAGTFDM,21 nM,3/3,4/9
GFTLHSYGIS,VIYSDGRRTFYGDSVK,GRAANTFDC,50 nM,3/3,0/9
VFTLNQYGIS,VIYSDGRRTFYGDSVK,GRAAGTFDS,76 nM,3/3,0/9
GFTLNMYGIS,VIYSDGRRKMYGDSVK,GRAAGTFDS,88 nM,3/3,5/9
GFTLNSYGIS,VIYSDGMRTFYGRSVK,GRAGGTFDS,250 nM,1/3,0/9
GFTLNSCGIS,VIYSDGRRTFYGDTVK,GRAAGTFDS,250 nM,3/3,1/9
GFTLCSYGIS,VIYSDGFRTFYGSSVK,GRAAGTFDS,260 nM,2/3,0/9
GFTLNSYGIS,VIYSDGHRTFYGDEVK,GRAEGTFDS,440 nM,1/3,1/9
GFTLNSYGIQ,VIYSDGRRTRYGDSFK,GRAAGTFDS,860 nM,1/3,4/9
GFTINSYGIS,VTYSDGRRTFYGDSVK,GPAAGTFDS,1.5 µM,1/3,1/9
GFTLNSYGLS,VIVSDGPRTFYGDSVK,GRAAGTFDS,1.7 µM,1/3,2/9
GFMLNSYGIS,VIYSDNHRTFYGDSVK,GRAAGTFDS,1.9 µM,1/3,1/9
GFTLNSYGIS,VIYSDGRRNFYGDIVL,GRAAGTFDS,3.6 µM,1/3,1/9
GFTLNSYGIS,VIYSDGRRTSYGDSVK,GLAAGGFDS,4.9 µM,1/3,2/9
GFTLGSYGNS,VIYSDGRKTFYGDSVK,GRAAGTFDS,5.2 µM,2/3,2/9
GPTLNSYGIS,VIYSDGRRTFYGDSVD,GRAAMTFDS,5.3 µM,2/3,1/9
GFTLQSYGIS,VIYSDGRRYFYGDPVK,GRAAGTFDS,6.2 µM,3/3,0/9
GFTLNSAGIS,VIHSQGRRTFYGDSVK,GRAAGTFDS,6.3 µM,1/3,5/9
GFSLNSHGIS,VIYSDGRRTFYGDSCK,GRAAGTFDS,6.9 µM,3/3,7/9
WFTPNSYGIE,VIYSDGRRTFYGDSVK,GRAAGTFDS,7.0 µM,1/3,2/9
GFTLNSYGIS,VIYSDGRRTFYGDSVS,GRATGTFDS,11 µM,1/3,0/9
GQTLNSYGIS,VIYSDWRRTFYGDIVK,GRAAGTFDS,14 µM,1/3,1/9
GFTLNSWGIS,VIYSDGRRTFYGDSVK,GRAMGTFGS,30 µM,2/3,4/9
GPTLNRYGIS,VIYSDGRRTFYGDSVK,GRAAGLFDS,30 µM,1/3,0/9
GFTLNSYGIS,VIYSDGHRTFYGDMVK,GRAAGTTDS,30 µM,1/3,2/9
GFTLNSYGIS,VIYSTGRRTGYGDSVQ,GRAAGTFDS,43 µM,2/3,3/9
RFTLNSYGIS,VIDSDGRRTFYGDSVK,GREAGTFDS,49 µM,1/3,5/9
GFTLNSYGIS,VIESDTRRTFYGDSVK,VRAAGTFDS,53 µM,2/3,2/9
GMTLNSYGIS,VIYSDGRRTFYGDSVG,GRAGGTFDS,71 µM,1/3,0/9
GFTLNSYGIS,VIYSDGRRTTTGDSVK,GDAAGTFDS,130 µM,2/3,4/9
GFTLNSYGIS,VIYMDGPRTFYWDSVK,GRAAGTFDS,180 µM,2/3,3/9
GFTLNSYGIS,VIYSDGRRTFAGDSKK,NRAAGTFDS,180 µM,2/3,6/9
PFTLNSYGIS,VIYSDGRRTFYGDSVK,GRNAGWFDS,210 µM,1/3,2/9
GFTLNSYGIS,VIYSDGRRTFYGDSVK,GDHAVTFDS,310 µM,2/3,3/9
IFCLVSYGIS,VIYSDGRRTFYGDSVK,GRAAGTFDS,350 µM,1/3,5/9
GFTLNSSGAS,VIYSDGRRTFYGDSVK,GRAAGTADS,490 µM,2/3,2/9
NFTLNSYGIS,VIYCDGRRTFYGDSVK,GSAAGTFDS,no signal,0/3,0/9

Second part, the sequence after the result:

Kd (apparent),seen in,empty controls,CDR-H1,CDR-H2,CDR-H3
no signal,0/3,0/9,GFTLNSYGIS,VIYSDGRRTFKGDSVK,GRKAGTFDS
no signal,0/3,3/9,GFTLNSKGIS,VIYSDGRRTFYGDSVK,GRAAGTFMV
no signal,0/3,1/9,GFTLNSYGIS,VPYSDGRRTFYGDSVK,GKAAGTFDS
no signal,0/3,0/9,SFTLNSYGIS,VIWSDGRRTFYGDSVK,GRAAGTFDN
no signal,0/3,0/9,GFTLTSYGIS,VQYSDGRRTEYGDSVK,GRAAGTFDS
no signal,0/3,1/9,FFTLNYYRIS,VIYSDGRRTFYGDSVK,GRAAGTFDS
no signal,0/3,0/9,GFTLVSYGIS,VIYSDGRRTFYGDSVK,GRKAGTFDS
no signal,0/3,0/9,GFALNSYGID,VIYSDGRRIFYGDSVK,GRAAGTFDS
no signal,0/3,0/9,GFTLNSWGIS,VIYSDGCRPFYGDSVK,GRAAGTFDS
no signal,0/3,2/9,GFTLMSYGIS,VIYSDGRRTFYGDSVK,QRAAGTFRS
no signal,0/3,1/9,GFDLNSPGIS,VIYSDGRRTFYGDSVK,GRAAGTFDD
no signal,0/3,1/9,GFTLNSYGKS,FIYSDGRRTFYGDSVK,GHAAGTFDS
no signal,0/3,0/9,GFDLNSYGIS,VIYMDGRRTFYGDSVK,GRAAGTFDS
no signal,0/3,0/9,GFTLNPYGIS,VIYSDTRRTFYGDSVK,GRAAGTFDS
no signal,0/3,0/9,GFTLNSYGIY,VIYSDGRRTFEGDSVK,GRAAGTFDR
no signal,0/3,0/9,GFTLNSYGIS,VEYSDIRRTFYGDSVK,GRAAGIFDS
no signal,0/3,2/9,GFTLNSDGIS,VIYSDGRRTFYFDSVE,GRAAGTFDS
no signal,0/3,2/9,GFTPNSYGIS,VYYSDGRRTFYGDSVK,GRAAQTFDS
no signal,0/3,5/9,GFTLNSYGIS,VIYSDGRRTEGGDSVA,GRAAGTFDS
no signal,0/3,0/9,GFRLNSYGIS,VIYSDGRRTFYGVSVK,GRAAGVFDS
no signal,0/3,0/9,GFWLNSYGIS,VIYSGGRRTFYGDSVK,GLAAGTFDS
no signal,0/3,1/9,GFWLNSYGIS,VKYSDGRRTFYGDSVK,GRAAQTFDS
no signal,0/3,0/9,GFTLNSVGIS,VIYSDGRRTMYRDSVK,GRAAGTFDS
no signal,0/3,0/9,GFTLNKYGIS,VIYSDGRRQFYGYSVK,GRAAGTFDS
no signal,0/3,1/9,GFTLNSYGIS,VIKSHGRRTFYGDSVK,GRAAATFDS
no signal,0/3,1/9,GFTLNSYGIS,VIYSKNRRTFYGDSVK,GRAAGCFDS
no signal,0/3,0/9,GFTLNSYGIS,VIYSDGRRTHYGDSHK,GRAPGTFDS
no signal,0/3,0/9,GFTLNSYGIS,VIYSDGRRTFYGDSVK,YVAAGTFDS
no signal,0/3,0/9,GFTLNSYGIS,VIYSDGRRTFYCRSVK,GRAHGTFDS
no signal,0/3,0/9,IFTLNSYGIS,VSYSDGRRTFYGDSVK,GRAAGTFDS
no signal,0/3,2/9,GFTLNSYGIS,AIYSDGRRTFYGISVK,GEAAGTFDS
no signal,0/3,4/9,GFTLNSYNIS,VIYSDGRRRFYGDSVK,GRAQGTFDS
no signal,0/3,1/9,LFTLNSYGIS,VIYSDGRRTDYGDSVK,GRAIGTFDS
no signal,0/3,2/9,GFTLNSYGIS,VIYSDGNRTFYGDSVK,GRAAGAFWS
no signal,0/3,0/9,GFTLNDYGIS,VIYSDDRRTFYGDSVK,GRAAGTFQS
no signal,0/3,2/9,GFTDNSYGIS,VIYSDGRRNFYGDVVK,GRAAGTFDS
no signal,0/3,0/9,FFTLNSYGIS,VIYSDGRRTFYGDSVK,GRAAKTSDS
no signal,0/3,0/9,GFTLNSYGPS,VIYSDGRRTFYGDSVK,GIAAYTFDS
no signal,0/3,0/9,GFTVNSYGIP,VIYSDGRRTFYGDSVQ,GRAAGTFDS

Repeated from above, the 9 best binders with a signal in all replicates:

CDR-H1,CDR-H2,CDR-H3,Kd (apparent),seen in,empty controls
GFSLNSYGIS,VIYSDGRRTFYGDSVK,GRTAGTFDY,1.5 nM,3/3,4/9
GFTLNSYGIS,VIYSDGRRTFYGDSVK,GRVAYTFDG,6.7 nM,3/3,1/9
GFTLNGYGIS,VIYSDGRRTFYGDSVK,GRLAGTFDM,21 nM,3/3,4/9
GFTLHSYGIS,VIYSDGRRTFYGDSVK,GRAANTFDC,50 nM,3/3,0/9
VFTLNQYGIS,VIYSDGRRTFYGDSVK,GRAAGTFDS,76 nM,3/3,0/9
GFTLNMYGIS,VIYSDGRRKMYGDSVK,GRAAGTFDS,88 nM,3/3,5/9
GFTLNSCGIS,VIYSDGRRTFYGDTVK,GRAAGTFDS,250 nM,3/3,1/9
GFTLQSYGIS,VIYSDGRRYFYGDPVK,GRAAGTFDS,6.2 µM,3/3,0/9
GFSLNSHGIS,VIYSDGRRTFYGDSCK,GRAAGTFDS,6.9 µM,3/3,7/9

Empty control strains, which show no peptide, gave a signal in 15% of pairings with library AAYL49; the median was 11 µM and 95% of these signals were weaker than 680 nM. No background was subtracted. The control count says in how many pairings with the empty strains this scFv gave a signal.